This passage reports Kd results from BindingDB's records for 26043948.

The structures appear in SMILES notation.

In this experiment the target is Acetylcholinesterase (Homo sapiens, UniProt P22303).

The term Kd denotes the free concentration of one partner at which half of the binding sites on the other are occupied at equilibrium, for simple one-to-one binding. A low value points to a tighter complex.

Consider `Cc1ccc(-c2csc(NC(=O)C[n+]3cccc(/C=N/O)c3)n2)cc1`, for which the Kd worked out at 146 µM.
